System: HT1080 cells
Assay: D2HG production inhibition in HT1080 cells
Conditions: Homo sapiens, HT-1080, 48 h, read-out: IC50 for inhibition of D2HG

| SMILES | IC50 [µM] |
| --- | --- |
| Cc1cc(Cc2ccc(O)cc2)n(O)c(=O)c1 [Compound 3] | 8.5 ± 2.5 |
| O=c1cccc(Cc2ccccc2)n1O [Compound 7] | > 30 |

From PMC4207540 (Journal of Medicinal Chemistry, 2014)
